One experiment concerns the target T1, human PR-B (Homo sapiens, UniProt P06401).
T1 sequence (P06401 1-933): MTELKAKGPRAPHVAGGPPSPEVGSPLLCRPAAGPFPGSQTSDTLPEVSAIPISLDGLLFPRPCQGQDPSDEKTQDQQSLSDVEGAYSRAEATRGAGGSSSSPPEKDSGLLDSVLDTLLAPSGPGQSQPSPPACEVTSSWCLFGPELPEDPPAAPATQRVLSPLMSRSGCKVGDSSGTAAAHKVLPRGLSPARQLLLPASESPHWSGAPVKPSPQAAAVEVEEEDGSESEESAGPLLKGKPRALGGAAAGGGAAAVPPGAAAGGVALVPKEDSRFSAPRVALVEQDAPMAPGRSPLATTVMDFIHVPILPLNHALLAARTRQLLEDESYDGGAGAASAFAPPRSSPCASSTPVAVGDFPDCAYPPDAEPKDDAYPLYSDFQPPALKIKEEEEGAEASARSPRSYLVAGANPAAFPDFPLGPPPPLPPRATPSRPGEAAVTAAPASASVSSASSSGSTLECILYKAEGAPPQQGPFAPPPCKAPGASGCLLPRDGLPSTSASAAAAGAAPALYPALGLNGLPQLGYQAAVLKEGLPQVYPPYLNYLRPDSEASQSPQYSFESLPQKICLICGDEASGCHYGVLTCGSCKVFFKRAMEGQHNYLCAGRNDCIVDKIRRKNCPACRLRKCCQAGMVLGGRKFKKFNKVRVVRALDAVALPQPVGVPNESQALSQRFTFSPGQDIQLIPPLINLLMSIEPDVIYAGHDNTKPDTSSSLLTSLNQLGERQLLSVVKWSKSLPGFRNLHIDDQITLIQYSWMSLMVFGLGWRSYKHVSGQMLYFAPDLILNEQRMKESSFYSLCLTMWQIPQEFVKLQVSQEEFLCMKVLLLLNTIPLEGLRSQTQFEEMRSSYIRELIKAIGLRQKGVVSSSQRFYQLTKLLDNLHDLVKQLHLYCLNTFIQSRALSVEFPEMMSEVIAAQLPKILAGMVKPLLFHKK
Nature of the experiment: Co-transfection assay, PR antagonist activity.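 Further: monkey kidney fibroblasts co-transfected with receptor expression plasmid and hormone-responsive luciferase reporter, antagonism read as reduced luciferase signal.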 The following applies: read-out: PR Antagonist CV-1 Cells Potency, antagonist potency = IC50, progesterone at its EC50.

The chains behind the UniProt entries cited, without tags or fusion partners. Where a name states a change or a piece, a line headed by the entry shows the natural chain unless it says otherwise.
UniProt P10275: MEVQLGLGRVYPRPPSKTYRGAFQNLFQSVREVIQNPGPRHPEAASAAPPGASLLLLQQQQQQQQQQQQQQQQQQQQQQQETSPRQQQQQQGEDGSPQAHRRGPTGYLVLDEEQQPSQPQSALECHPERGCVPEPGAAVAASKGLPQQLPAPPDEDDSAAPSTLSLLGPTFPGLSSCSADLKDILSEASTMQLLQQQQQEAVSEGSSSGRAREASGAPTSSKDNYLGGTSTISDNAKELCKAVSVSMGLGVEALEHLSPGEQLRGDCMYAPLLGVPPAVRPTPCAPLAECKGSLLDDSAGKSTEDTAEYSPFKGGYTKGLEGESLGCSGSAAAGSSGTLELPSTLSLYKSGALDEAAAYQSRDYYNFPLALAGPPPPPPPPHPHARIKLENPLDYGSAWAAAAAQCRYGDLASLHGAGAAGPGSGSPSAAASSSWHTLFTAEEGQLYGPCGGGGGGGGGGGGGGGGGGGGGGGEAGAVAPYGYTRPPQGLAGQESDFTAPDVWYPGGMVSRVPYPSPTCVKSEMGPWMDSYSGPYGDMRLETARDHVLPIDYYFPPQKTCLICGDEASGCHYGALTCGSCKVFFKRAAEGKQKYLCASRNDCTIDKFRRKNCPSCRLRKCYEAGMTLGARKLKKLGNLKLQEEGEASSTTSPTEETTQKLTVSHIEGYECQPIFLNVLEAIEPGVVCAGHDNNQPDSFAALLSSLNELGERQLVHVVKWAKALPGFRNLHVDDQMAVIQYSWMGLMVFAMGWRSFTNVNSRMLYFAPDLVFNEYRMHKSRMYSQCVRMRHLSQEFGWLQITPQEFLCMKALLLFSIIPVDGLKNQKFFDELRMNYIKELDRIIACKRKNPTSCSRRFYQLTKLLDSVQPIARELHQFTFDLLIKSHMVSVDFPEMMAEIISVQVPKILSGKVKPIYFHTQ

For the next experiment, the target named is T2, AR (Homo sapiens, UniProt P10275).
T2 construct: expressed in transfected cells; host or cells: CV-1 cells, transient transfection
Nature of the experiment: Co-transfection assay, AR antagonist activity. To be noted: Table 5 overall potency, read-out: AR Potency Antag. The format is cell-based.

On to “8-Bromo-1,2-dihydro-2,2,4-trimethylindeno[1,2-g]quinoline [Compound 117]”, for which the IC50 at human PR-B stood at 0.462 µM. With “8-Fluoro-1,2-dihydro-2,2,4-trimethylindeno[1,2-g]quinoline [Compound 124]”, at AR, the IC50 worked out at 1.5 µM.

The values are drawn from EP1382597A2, “Steroid receptor modulator compounds and methods” (LIGAND PHARMACEUTICALS, INC., priority 1994, dated 1996).
